Measurements reported in publication PMC6155437, “AM-2201 Inhibits Multiple Cytochrome P450 and Uridine 5′-Diphospho-Glucuronosyltransferase Enzyme Activities in Human Liver Microsomes” (Molecules : A Journal of Synthetic Chemistry and Natural …, 2017).

Protein sequences, listed by entry. Tags and fused reporters are not part of them. Lines headed by an entry give the natural chain unless they say otherwise; changes in a name come on top.
UniProt P20813: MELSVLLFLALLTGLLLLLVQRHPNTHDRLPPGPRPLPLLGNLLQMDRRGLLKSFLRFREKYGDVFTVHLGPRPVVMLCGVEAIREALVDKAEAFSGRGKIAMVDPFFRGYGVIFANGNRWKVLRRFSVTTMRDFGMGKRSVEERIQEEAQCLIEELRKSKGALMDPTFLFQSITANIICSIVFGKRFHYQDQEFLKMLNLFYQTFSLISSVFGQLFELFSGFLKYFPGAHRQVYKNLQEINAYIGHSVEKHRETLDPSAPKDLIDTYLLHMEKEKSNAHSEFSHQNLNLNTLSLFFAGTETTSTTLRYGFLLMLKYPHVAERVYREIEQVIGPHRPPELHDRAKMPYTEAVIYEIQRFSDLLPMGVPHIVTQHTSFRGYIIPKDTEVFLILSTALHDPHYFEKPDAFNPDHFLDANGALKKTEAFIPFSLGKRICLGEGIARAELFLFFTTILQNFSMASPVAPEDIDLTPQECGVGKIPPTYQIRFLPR
UniProt P10635, whole entry: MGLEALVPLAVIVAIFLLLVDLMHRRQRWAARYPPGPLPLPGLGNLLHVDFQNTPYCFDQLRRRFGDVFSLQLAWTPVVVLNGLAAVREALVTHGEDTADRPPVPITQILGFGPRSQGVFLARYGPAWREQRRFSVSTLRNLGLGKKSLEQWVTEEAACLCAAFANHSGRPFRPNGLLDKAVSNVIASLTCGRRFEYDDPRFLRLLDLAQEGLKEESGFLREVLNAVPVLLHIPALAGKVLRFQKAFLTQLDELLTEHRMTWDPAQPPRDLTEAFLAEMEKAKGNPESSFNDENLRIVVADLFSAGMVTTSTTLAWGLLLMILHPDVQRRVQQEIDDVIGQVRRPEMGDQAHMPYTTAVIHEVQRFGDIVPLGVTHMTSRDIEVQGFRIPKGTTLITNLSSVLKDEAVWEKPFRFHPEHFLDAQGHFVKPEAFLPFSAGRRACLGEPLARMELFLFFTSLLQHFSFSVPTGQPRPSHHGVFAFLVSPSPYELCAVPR
UniProt P10632, whole entry: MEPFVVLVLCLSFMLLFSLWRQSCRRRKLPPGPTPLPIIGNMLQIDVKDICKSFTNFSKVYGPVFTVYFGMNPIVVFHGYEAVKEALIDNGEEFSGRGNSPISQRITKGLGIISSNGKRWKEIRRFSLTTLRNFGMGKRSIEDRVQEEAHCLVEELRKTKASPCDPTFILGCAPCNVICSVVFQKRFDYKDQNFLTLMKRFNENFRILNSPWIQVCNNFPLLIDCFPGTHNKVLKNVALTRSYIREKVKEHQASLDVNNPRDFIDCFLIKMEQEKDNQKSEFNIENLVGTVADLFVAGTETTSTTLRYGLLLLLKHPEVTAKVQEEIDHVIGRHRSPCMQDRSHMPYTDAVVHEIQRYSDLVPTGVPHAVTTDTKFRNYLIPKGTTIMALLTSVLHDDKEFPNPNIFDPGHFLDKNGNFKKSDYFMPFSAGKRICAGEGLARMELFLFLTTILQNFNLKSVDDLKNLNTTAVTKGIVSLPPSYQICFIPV
UniProt P33261, whole entry: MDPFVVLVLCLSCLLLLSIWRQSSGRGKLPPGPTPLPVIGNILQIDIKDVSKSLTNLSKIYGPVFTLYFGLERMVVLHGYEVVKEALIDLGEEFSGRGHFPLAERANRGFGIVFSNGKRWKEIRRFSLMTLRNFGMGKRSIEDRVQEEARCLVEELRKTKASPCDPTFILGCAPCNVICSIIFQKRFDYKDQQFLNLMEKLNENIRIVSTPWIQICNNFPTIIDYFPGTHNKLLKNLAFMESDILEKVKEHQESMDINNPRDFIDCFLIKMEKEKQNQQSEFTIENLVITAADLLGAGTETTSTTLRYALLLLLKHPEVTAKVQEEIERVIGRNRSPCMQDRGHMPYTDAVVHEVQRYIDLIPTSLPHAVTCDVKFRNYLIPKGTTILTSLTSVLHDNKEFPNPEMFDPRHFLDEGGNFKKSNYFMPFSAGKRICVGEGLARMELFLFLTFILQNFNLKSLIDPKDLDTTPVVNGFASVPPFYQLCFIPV
UniProt P05177, whole entry: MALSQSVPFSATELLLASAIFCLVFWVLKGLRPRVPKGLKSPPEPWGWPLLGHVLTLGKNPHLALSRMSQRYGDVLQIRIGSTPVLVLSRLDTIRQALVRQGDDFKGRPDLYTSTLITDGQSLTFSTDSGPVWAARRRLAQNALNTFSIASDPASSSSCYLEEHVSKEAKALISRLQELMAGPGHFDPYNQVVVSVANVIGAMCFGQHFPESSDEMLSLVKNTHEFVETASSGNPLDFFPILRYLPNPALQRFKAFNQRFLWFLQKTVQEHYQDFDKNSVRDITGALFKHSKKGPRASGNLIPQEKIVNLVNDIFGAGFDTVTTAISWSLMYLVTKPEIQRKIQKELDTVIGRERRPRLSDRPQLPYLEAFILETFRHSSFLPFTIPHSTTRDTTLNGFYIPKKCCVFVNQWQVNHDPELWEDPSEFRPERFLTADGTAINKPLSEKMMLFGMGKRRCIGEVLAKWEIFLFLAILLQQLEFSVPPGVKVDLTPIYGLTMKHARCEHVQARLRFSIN

Experiments:
CYP2B6 = CYP2B6 (Homo sapiens, UniProt P20813); assay: CYP2B6 bupropion hydroxylase inhibition in ultrapool human liver microsomes
Description: All incubations were performed in triplicate, and average values were used.
(§1) The metabolites formed from CYP substrates were quantified simultaneously by a LC-MS/MS method described previously. The ESI source settings in positive-ion mode for metabolite ionization were: capillary voltage, 4200 V; vaporizer temperature, 350 °C; capillary temperature, 330 °C; sheath gas pressure, 35 psi; and auxiliary gas pressure, 15 psi. […] Analytical data were processed using Xcalibur software (version 2.1, Thermo Scientific).
(§2) The apparent kinetic parameters for inhibitory potential (Ki and kinact values) and inhibition mode were estimated from the fitted curves using the Enzyme Kinetics program (ver. 1.1; Systat Software Inc., San Jose, CA, USA).

CYP2D6 = CYP2D6 (Homo sapiens, UniProt P10635); assay: CYP2D6 bufuralol 1′-hydroxylase inhibition in human liver microsomes
Description: (§3) After a 3-min pre-incubation at 37 °C, the reactions were initiated by addition of NADPH and incubation proceeded for 15 min at 37 °C in a shaking water bath. […] The incubation mixtures were centrifuged (13,000× g, 4 min, 4 °C). All assays were performed in triplicate and mean values were used in calculations.
(§4) Each reaction was initiated by adding the seven-CYP probe substrate cocktail.
as §1, §2

CYP2C8 = biological target: T1, CYP2C8 (Homo sapiens, UniProt P10632); assay: CYP2C8 amodiaquine N-deethylase inhibition and mechanism-based inactivation in human liver microsomes; assay type: in vitro ADME; settings: for kinact: inactivation of CYP2C8 amodiaquine N-deethylation, human liver microsomes
T1 construct: tissue Corning Life Sciences; host or cells: pooled human liver microsomes (150 donors)
Description: as §3, §4
The second reaction was terminated after incubation for 10 min by adding 100-µL amounts of ice-cold methanol containing d9-1′-hydroxybufuralol. The incubation mixtures were centrifuged (13,000× g, 4 min, 4 °C), and then 50 µL of each supernatant was diluted with 50 µL of water. Aliquots (5 µL) of the diluted supernatants were analyzed by LC-MS/MS.
The metabolites formed from CYP substrates were quantified simultaneously by a LC-MS/MS method described previously. The ESI source settings in positive-ion mode for metabolite ionization were: capillary voltage, 4200 V; vaporizer temperature, 350 °C; capillary temperature, 330 °C; sheath gas pressure, 35 psi; and auxiliary gas pressure, 15 psi. Quantification was performed by selected reaction monitoring (SRM) of the [M + H]^+ ion and the related product ion for each metabolite: acetaminophen, 152.1 > 110.3; N-desethylamodiaquine, 328.1 > 283.0; 7-hydroxycoumarin, 163.0 > 107.2; 4-hydroxybupropion, 256.1 > 238.0; 4′-hydroxydiclofenac, 312.0 > 231.1; 4′-hydroxy-mephenytoin; 235.1 > 150.1; 1′-hydroxybufuralol, 278.1 > 186.1; 1′-hydroxymidazolam, 341.9 > 324.0; ^13C2,^15N-acetaminophen 155.1 > 111.2; and d9-1′-hydroxybufuralol, 287.2 > 187.0. Analytical data were processed using Xcalibur software (version 2.1, Thermo Scientific).
as §2

CYP2C19 = CYP2C19 (Homo sapiens, UniProt P33261); assay: CYP2C19 [S]-mephenytoin 4′-hydroxylase inhibition in human liver microsomes
Description: as §3, §4, §1, §2

CYP2A6 = biological target: T2, CYP2A6 (Homo sapiens, UniProt P11509); assay: CYP2A6 coumarin 7-hydroxylase inhibition in pooled human liver microsomes (substrate cocktail, LC-MS/MS)
T2 sequence (P11509 1-494): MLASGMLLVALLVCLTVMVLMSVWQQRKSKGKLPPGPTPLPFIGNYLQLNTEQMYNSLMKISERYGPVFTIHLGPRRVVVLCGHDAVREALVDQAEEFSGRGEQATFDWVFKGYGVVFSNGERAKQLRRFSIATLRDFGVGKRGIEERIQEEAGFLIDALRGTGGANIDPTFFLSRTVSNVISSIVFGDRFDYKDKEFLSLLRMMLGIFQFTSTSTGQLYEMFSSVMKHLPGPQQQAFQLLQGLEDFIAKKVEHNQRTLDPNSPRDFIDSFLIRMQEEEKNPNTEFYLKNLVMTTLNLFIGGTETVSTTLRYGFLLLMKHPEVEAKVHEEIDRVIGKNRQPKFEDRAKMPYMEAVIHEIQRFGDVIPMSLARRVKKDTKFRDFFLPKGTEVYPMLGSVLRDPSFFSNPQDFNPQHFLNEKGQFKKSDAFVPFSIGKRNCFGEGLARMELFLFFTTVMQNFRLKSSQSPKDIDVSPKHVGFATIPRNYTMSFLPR
Description: as §3, §4, §1, §2

CYP1A2 = CYP1A2 (Homo sapiens, UniProt P05177); assay: CYP1A2 phenacetin O-deethylase inhibition in pooled human liver microsomes (substrate cocktail, LC-MS/MS)
Description: as §3, §4, §1, §2

UGT2B7 = biological target: T3, UGT2B7 (Homo sapiens, UniProt P16662); parameters: method as in PMID 23230132; settings: UGT2B7-catalyzed ethanol glucuronidation; cited from earlier work
T3 construct: To determine Ki values of AM-2201 for UGT1A3 and UGT2B7 enzymes, human liver microsomes (0.15 mg/mL) were incubated; tissue Corning Life Sciences; host or cells: pooled human liver microsomes (150 donors)
T3 sequence (P16662 24-529): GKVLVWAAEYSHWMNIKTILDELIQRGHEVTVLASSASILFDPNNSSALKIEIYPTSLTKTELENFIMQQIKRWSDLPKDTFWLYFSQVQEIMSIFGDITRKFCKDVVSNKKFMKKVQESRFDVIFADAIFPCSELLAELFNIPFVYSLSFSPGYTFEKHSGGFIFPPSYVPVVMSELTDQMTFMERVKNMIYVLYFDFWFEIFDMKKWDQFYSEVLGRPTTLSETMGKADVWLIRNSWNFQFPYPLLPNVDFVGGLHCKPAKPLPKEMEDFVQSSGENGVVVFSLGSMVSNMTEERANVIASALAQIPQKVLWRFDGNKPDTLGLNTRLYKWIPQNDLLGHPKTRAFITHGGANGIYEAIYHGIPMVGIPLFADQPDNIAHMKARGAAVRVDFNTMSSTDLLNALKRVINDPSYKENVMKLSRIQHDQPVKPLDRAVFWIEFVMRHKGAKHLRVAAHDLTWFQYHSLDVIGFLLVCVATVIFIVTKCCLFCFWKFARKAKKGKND

Row | Structure (SMILES) | IC50 (CYP2B6) [µM] | IC50 (CYP2B6; IC50 (μM) No Preincubation, Bupropion hydroxylase, CYP2B6, human liver microsomes, 50 μM bupropion) [µM] | IC50 (CYP2D6) [µM] | IC50 (CYP2D6; read-out: IC50 (μM) With Preincubation, Bufuralol 1′-hydroxylase, CYP2D6, 30 min preincubation with NADPH) [µM] | kinact (CYP2C8; human, liver microsomes, pH 7.4, probe amodiaquine 2 µM (N-deethylation), read-out: Kinact (converted)) [s⁻¹] | kinact (CYP2C8) [s⁻¹] | IC50 shift at 0.5 h (CYP2C8; pooled liver microsomes, pH 7.4, probe amodiaquine (N-deethylation), CYP2C8 amodiaquine N-deethylation, human liver microsomes and NADPH, read-out: lowering of IC50 after 30-min pre-incubation vs without pre-incubation) | IC50 (CYP2C19) [µM] | IC50 (CYP2C19; IC50 (μM) No Preincubation, [S]-Mephenytoin 4′-hydroxylase, CYP2C19, human liver microsomes, 100 μM [S]-mephenytoin) [µM] | IC50 (CYP2A6) [µM] | IC50 (CYP2A6; read-out: IC50 (μM) With Preincubation, Coumarin 7-hydroxylase, CYP2A6, 30 min preincubation with NADPH) [µM] | IC50 (CYP1A2) [µM] | IC50 (CYP1A2; read-out: IC50 (μM) With Preincubation, Phenacetin O-deethylase, CYP1A2, 30 min preincubation with NADPH) [µM] | Ki (UGT2B7) [µM]
1 | O=C(c1cccc2ccccc12)c1cn(CCCCCF)c2ccccc12 [AM-2201, 1-(5-fluoropentyl-1H-indol-3-yl)-(naphthalene-1-yl)methanone] | 21.9 | < 50 | < 50 | < 50 | 0.000867 | 0.00086 | > 2.5 | 31.3 | < 50 | < 50 | < 50 | < 50 | < 50 | –
2 | C=C(C)[C@@H]1CCC(C)=C[C@H]1c1c(O)cc(CCCCC)cc1O [cannabidiol] | – | – | – | – | – | – | – | – | – | – | – | – | – | 9.8

Read-outs that look alike come from different tables or passages of the source.
